The results in this text go back to PMC10375536, “Discovery of High-Affinity Amyloid Ligands Using a Ligand-Based Virtual Screening Pipeline” (Journal of the American Chemical Society, 2023).

Protein sequences, listed by entry. Tags and fused reporters are not part of them. Residues count along the entry.
UniProt P05067, 672-713 limits assumed: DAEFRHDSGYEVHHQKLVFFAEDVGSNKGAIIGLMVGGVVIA

The target in this test is T1, Aβ(1–42) fibrils (Homo sapiens, UniProt P05067).
T1 construct: Monomeric Aβ(1-42) (1 mg: Rockland Immunochemicals, Limerick, PA, Lot #31541); purchased Rockland Immunochemicals, Limerick, PA Lot #31541 (a lot number; no catalogue number given)
Kind of test: direct fluorescence titration into fibrils (saturation binding assay).

Regarding `Cc1ccc2c(c1)sc(-c1ccc(N(C)C)cc1)[n+]2C` [ThT, Thioflavin T], the Kd (ThT titrated into Aβ(1–42) fibrils (500 nM), 1× PBS pH 7.4, 25 °C, best fit to eq 2, read-out: log(Kd(ThT)/M) (converted)) is 200 nM. Further, the “−log(Kd/M)” value (direct titration of ThT into Aβ(1–42) fibrils, single-site binding model) was 6.7 ± 0.1.
